IC50 data for one compound are collected here from patent US10632119B2, “Fused bicyclic 2,4-diaminopyrimidine derivative as a dual ALK and FAK inhibitor” (priority 2012, dated 2020).

Amino acid sequences for entries named in this document (tags omitted). Chains listed by the source or under a name are the forms on record and can include a tag or linker. Residues count along the entry.
UniProt Q05397, whole entry: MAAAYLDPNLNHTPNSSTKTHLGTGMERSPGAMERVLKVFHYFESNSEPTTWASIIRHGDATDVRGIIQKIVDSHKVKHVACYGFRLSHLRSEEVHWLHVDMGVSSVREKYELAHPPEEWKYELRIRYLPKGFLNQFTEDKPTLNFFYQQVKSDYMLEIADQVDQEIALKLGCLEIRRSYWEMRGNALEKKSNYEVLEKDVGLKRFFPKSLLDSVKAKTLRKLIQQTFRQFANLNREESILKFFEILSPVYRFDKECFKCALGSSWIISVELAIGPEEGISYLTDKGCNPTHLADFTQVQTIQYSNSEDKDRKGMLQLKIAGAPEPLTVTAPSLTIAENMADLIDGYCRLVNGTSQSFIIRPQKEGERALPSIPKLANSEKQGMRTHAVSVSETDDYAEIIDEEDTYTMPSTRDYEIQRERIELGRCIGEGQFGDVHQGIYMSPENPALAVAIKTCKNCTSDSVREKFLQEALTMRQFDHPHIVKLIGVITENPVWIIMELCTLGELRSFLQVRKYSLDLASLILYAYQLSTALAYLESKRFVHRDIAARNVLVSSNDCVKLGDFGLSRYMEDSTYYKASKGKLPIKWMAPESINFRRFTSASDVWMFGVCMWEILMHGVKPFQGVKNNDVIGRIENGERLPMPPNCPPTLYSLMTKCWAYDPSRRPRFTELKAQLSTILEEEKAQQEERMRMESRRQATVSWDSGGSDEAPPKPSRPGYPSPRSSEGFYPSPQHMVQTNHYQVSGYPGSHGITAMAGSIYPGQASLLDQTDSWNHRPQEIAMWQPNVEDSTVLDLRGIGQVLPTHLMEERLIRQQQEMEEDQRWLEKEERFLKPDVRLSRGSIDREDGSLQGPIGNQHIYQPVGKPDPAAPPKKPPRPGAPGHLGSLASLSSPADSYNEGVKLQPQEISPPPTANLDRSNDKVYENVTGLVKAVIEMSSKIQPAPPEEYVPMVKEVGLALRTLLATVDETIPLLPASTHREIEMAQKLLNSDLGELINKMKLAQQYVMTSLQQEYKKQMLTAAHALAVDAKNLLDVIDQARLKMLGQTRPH
UniProt Q9UM73, with tags, fused parts or gaps: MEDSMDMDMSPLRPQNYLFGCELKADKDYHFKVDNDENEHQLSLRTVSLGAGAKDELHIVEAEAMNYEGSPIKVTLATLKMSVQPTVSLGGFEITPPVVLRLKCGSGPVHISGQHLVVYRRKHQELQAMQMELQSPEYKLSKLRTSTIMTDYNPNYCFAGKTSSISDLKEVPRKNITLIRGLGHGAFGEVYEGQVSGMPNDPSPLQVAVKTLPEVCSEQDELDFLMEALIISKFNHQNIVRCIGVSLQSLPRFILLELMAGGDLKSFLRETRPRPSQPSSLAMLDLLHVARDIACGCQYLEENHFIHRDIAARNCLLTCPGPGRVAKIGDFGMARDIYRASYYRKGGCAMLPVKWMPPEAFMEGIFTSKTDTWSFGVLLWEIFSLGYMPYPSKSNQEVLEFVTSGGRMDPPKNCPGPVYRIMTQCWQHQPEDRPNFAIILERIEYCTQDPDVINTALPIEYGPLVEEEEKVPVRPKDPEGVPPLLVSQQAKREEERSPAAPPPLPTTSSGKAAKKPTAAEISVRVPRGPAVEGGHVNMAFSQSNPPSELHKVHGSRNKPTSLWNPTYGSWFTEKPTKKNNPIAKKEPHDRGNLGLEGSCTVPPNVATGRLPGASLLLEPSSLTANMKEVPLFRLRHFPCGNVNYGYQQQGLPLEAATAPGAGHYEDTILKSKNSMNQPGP
UniProt Q9UM73, 19-1620: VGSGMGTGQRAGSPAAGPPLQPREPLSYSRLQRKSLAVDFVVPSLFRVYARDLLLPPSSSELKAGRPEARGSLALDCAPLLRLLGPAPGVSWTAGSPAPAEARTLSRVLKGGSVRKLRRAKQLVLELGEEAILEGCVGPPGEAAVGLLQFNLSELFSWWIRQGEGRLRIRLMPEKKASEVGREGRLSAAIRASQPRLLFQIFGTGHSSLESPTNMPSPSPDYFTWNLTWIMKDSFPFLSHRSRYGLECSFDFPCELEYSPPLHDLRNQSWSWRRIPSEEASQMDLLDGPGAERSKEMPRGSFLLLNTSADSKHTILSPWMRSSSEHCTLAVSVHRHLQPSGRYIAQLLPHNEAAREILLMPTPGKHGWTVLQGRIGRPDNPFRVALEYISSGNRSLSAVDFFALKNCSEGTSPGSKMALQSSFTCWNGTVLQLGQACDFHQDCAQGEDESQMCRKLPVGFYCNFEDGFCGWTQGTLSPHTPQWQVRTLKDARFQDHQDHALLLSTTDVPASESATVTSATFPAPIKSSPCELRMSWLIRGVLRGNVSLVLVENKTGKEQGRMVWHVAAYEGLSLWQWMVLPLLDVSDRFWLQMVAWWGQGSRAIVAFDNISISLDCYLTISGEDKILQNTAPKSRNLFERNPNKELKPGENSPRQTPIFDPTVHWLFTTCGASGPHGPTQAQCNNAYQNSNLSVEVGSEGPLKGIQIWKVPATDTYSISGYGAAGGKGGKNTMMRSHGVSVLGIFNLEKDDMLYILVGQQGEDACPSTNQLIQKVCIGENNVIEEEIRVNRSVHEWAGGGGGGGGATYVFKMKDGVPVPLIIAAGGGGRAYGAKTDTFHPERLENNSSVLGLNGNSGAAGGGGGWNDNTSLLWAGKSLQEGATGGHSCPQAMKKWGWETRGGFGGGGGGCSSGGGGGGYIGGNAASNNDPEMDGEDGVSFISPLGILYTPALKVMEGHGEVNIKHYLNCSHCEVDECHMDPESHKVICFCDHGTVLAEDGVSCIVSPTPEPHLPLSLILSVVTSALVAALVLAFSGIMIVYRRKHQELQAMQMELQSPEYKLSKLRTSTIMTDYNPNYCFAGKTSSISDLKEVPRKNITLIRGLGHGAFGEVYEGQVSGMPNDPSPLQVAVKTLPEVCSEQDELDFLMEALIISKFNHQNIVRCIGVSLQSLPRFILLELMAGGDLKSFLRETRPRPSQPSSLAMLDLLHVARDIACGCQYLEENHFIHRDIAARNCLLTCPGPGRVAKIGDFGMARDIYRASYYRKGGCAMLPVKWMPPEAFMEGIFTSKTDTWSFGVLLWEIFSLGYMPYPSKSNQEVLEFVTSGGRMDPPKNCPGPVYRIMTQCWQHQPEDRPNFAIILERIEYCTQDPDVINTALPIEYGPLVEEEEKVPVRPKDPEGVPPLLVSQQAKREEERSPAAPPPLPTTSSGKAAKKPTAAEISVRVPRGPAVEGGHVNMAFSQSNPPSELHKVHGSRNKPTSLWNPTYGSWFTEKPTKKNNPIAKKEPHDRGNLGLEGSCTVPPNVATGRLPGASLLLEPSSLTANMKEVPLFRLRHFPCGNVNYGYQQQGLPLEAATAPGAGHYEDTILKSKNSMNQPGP

The target in assay [1] is FAK (Homo sapiens, UniProt Q05397). As to the kind of experiment: FAK cellular assay. The format is cell-based.
The target in assay [2] is T1, ALK (Homo sapiens, UniProt Q9UM73). As to the kind of experiment: ALK cellular assay. It counts as cell-based.
Assay [3] has as its target T1, ALK. As to the kind of experiment: ALK enzymatic assay. The format is biochemical.

With `CNC(=O)c1ccccc1Nc1nc(Nc2ccc3c(c2OC)CCC[C@H](N2CCN(CCO)CC2)C3)ncc1Cl` [CEP-37440, 2-[[5-chloro-2-[[(6S)-6-[4-(2-hydroxyethyl)piperazin-1-yl]-1-methoxy-6,7,8,9-tetrahydro-5H-benzo[7]annulen-2-yl]amino]pyrimidin-4-yl]amino]-N-methyl-benzamide], the IC50 came to 82 nM in assay [1]; 120 nM in assay [2] (75% human plasma, read-out: ALK cellular IC50 in 75% human plasma); 200 nM in assay [2] (75% murine plasma, read-out: ALK cellular IC50 in 75% murine plasma); 40 nM in assay [2] (read-out: ALK cellular IC50); 3.5 nM in assay [3].

For orientation: IC50 means the concentration needed to halve the response being measured.
